Measured values reported in ChEMBL document CHEMBL3351775, “Design, synthesis and anti-HIV evaluation of novel diarylnicotinamide derivatives (DANAs) targeting the entrance channel of the NNRTI binding pocket through structure-guided molecular hybridization” (Eur J Med Chem, 2014).

Tested on: Human immunodeficiency virus 1
Experiment: Antiviral activity against HIV1 3B infected in human MT4 cells assessed as inhibition of virus-induced […] after 5 days by MTT assay
Format: functional, organism-based
Details: Human immunodeficiency virus 1, 3B, MT4, 120 h

## Cc1cn([C@H]2C[C@H](N=[N+]=[N-])[C@@H](CO)O2)c(=O)[nH]c1=O [ZIDOVUDINE]
  EC50: 7.1 nM
